Measured values as given in patent publication US20220153864A1.

Columns and labels:
[1] = molecular target: 32 different targets including GPC3, GPC5, and other TNF receptor proteins; experiment: off-target ELISA on 32 coated targets, binder at 100 nM, signals normalized to control antibody SEQ ID NOs: 106 and 107 and summed
[2] = molecular target: 32 different targets including GPC3, GPC5, and other TNF receptor proteins; experiment: off-target ELISA on 32 coated targets, sum of the ratios at 100 nM and 10 nM
[3] = molecular target: 32 different targets including GPC3, GPC5, and other TNF receptor proteins; experiment: off-target ELISA on 32 coated targets, binder at 10 nM, signals normalized to control antibody SEQ ID NOs: 106 and 107 and summed

cumulative binding ratio [1]: 64 | sum of cumulative binding ratios [2]: 109 | cumulative binding ratio [3]: 45
B1: fusion protein SEQ ID NOs: 87 and 82 (bispecific antibody, human IgG4 S228P, kappa, F234A L235A)
heavy: QVQLVQSGAEVKKPGASVKVSCKASGYTFTDYEMHWVRQAPGQGLEWMGALDPKTGDTAYSQKFKGRVTLTADKSTSTAYMELSSLTSEDTAVYYCTRFYSYTYWGQGTLVTLVSSASTKGPSVFPLAPCSRSTSESTAALGCLVKDYFPEPVTVSWNSGALTSGVHTFPAVLQSSGLYSLSSVVTVPSSSLGTKTYTCNVDHKPSNTKVDKRVESKYGPPCPPCPAPEAAGGPSVFLFPPKPKDTLMISRTPEVTCVVVDVSQEDPEVQFNWYVDGVEVHNAKTKPREEQFNSTYRVVSVLTVLHQDWLNGKEYKCKVSNKGLPSSIEKTISKAKGQPREPQVYTLPPSQEEMTKNQVSLTCLVKGFYPSDIAVEWESNGQPENNYKTTPPVLDSDGSFFLYSRLTVDKSRWQEGNVFSCSVMHEALHNHYTQKSLSLSLGGGGGSGGGGSGGGGSQDSTSDLIPAPPLSKVPLQQNFQDNQFHGKWYVVGQAGNIRLREDKDPIKMMATIYELKEDKSYDVTMVKFDDKKCMYDIWTFVPGSQPGEFTLGKIKSFPGHTSSLVRVVSTNYNQHAMVFFKFVFQNREEFYITLYGRTKELTSELKENFIRFSKSLGLPENHIVFPVPIDQCIDG
light: DVVMTQSPLSLPVTPGEPASISCRSSQSLVHSNRNTYLHWYLQKPGQSPQLLIYKVSNRFSGVPDRFSGSGSGTDFTLKISRVEAEDVGVYYCSQNTHVPPTFGQGTKLEIKRTVAAPSVFIFPPSDEQLKSGTASVVCLLNNFYPREAKVQWKVDNALQSGNSQESVTEQDSKDSTYSLSSTLTLSKADYEKHKVYACEVTHQGLSSPVTKSFNRGEC
